Measurements from PMC9054876, “Population pharmacokinetic analysis of tepotinib, an oral MET kinase inhibitor, including data from the VISION study” (Cancer Chemotherapy and Pharmacology, 2022).

Experiment: Population PK model of tepotinib (plasma concentrations, 12 clinical studies)
Source text: This step included food status, formulation, and oral dose level.
In the second step, the remaining covariates were further evaluated, including demographics (age, body weight, race, and sex), patient characteristics (disease status, i.e., patient or healthy participant, tumor type, National Cancer Institute Organ Dysfunction Working Group [NCI-ODWG] classification of liver impairment, and baseline tumor burden), laboratory values (serum albumin, total bilirubin, alkaline phosphatase, international normalized ratio, and total protein), and co-medications (opioid analgesics and gefitinib).
SCM was applied in the structural covariate model building step, followed by an adaptive scope reduction (ASR) SCM in the following covariate searching step to reduce run times. For the SCM procedures, the forward selection p value was set to 0.01, and the backward elimination p value to 0.001. The ASR threshold p value was set to the same as the forward p value of 0.01.
Continuous covariate relationships were coded as power models (Formula 1), and categorical covariates were coded as a fractional difference to the most common category (Formula 2). […]

CN1CCC(COc2cnc(-c3cccc(Cn4nc(-c5cccc(C#N)c5)ccc4=O)c3)nc2)CC1 [Tepotinib]
NCI-ODG class > 0 covariate (liver dysfunction) on D1 (fractional difference): –0.332 | IIV of relative bioavailability (human, in vivo): 28.3%
